Source: US20240043382A1, “MODIFIED INDOLE ALKALOIDS FOR THERAPEUTIC USES” (priority 2020, published 2024)

The chains behind the UniProt entries cited, without tags or fusion partners. Residues count along the entry.
UniProt P28223, whole entry: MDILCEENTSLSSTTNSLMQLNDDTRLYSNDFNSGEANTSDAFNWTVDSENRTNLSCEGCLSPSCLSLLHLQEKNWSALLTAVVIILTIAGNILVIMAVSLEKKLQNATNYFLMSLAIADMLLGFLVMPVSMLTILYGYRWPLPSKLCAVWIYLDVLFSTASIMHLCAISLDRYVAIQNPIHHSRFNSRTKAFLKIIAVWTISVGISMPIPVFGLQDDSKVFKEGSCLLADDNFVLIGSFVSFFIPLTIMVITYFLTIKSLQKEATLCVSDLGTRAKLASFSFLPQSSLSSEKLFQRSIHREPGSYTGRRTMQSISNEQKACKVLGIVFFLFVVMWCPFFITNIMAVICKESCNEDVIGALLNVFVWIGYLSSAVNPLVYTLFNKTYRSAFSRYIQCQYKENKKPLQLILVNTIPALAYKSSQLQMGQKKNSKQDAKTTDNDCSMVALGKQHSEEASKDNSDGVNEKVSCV
UniProt P28335, 33-458 limits assumed: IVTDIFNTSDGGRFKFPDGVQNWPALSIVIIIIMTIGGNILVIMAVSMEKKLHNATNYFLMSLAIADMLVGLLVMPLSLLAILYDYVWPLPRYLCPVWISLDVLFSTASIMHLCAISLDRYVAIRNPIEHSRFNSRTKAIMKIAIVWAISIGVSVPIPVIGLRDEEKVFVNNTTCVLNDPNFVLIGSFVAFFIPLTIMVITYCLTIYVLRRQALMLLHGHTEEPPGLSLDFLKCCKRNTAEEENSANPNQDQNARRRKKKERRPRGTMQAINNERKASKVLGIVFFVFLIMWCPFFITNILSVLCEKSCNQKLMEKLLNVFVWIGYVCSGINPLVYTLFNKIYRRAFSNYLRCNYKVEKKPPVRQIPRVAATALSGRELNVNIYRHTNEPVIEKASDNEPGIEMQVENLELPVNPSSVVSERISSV

How the values were obtained:
[1] = molecular target: human 5-HT2A (h5-HT2A) receptor (Homo sapiens, UniProt P28223); experiment: 5-HT2A receptor functional assay (Gq-mediated calcium flux) of saliva-hydrolyzed modified indole alkaloids; format: cell-based; conditions: 5HT2A agonist activity, compounds hydrolyzed by treatment with human saliva
[2] = molecular target: human 5-HT2C (h5-HT2C) receptor (Homo sapiens, UniProt P28335); experiment: 5-HT2C receptor functional assay (Gq-mediated calcium flux) of saliva-hydrolyzed modified indole alkaloids; format: cell-based; conditions: 5HT2C agonist activity, compounds hydrolyzed by treatment with human saliva

## CC(C)N(C)CCc1c[nH]c2cccc(O[C@H]3O[C@H](CO)[C@@H](O)[C@H](O)[C@H]3O)c12
[1]; normalized to 5-HT (100%)
  Emax % 5-HT (± SEM): 99.5 ± 1.0 % 5-HT
[1]; read-out: EC50 nM, Flp-In T-REx 293 cells expressing h5-HT2A, peak calcium flux
  EC50: 5.2 nM
[2]; normalized to 5-HT (100%)
  Emax % 5-HT (± SEM): 79.2 ± 1.0 % 5-HT
[2]; read-out: EC50 nM, Flp-In T-REx 293 cells expressing h5-HT2C, peak calcium flux
  EC50: 182 nM
